Laboratory results: patent US20090137600A1, “Antiplatelet agent and process for producing the same” (priority 2004, published 2009)

Test: Crystal stability on storage at 25° C. and 0%, 52% or 93% RH for 3 days
Assay type: physicochemical
Set-up: key to Crystal form (change): No: No change; Yes: Some change
Description: Compounds (1a), (1b), and (1c) as well as various salts of Compound (1a) produced in the Examples as described above were stored at 25° C. and at a relative humidity of 0%, 52%, or 93% for 3 days to evaluate change in weight and crystal form. Change in crystal form was measured in the case of fumarate at a low humidity, and in the case of Compound (1a) and its citrate at a high humidity. The salts of Compound (1a) were produced according to the method of Example 3.

Crystal form (change) (0% RH): No
Weight change (%) (0% RH): 0.00%
Crystal form (change) (52% RH): No
Weight change (%) (52% RH): 0.97%
Crystal form (change) (93% RH): No
Weight change (%) (93% RH): 1.07%
Substance: Succinate
